Laboratory results taken from US20250115600A1, “COVALENT MODIFIERS OF AKT1 AND USES THEREOF” (Terremoto Biosciences, Inc., priority 2022, published 2025).

Sequences of proteins named here, by UniProt entry; tags and fusion partners are left off. A change or cut given only in a name is not applied to a line headed by its entry.
UniProt P31749, whole entry E17K: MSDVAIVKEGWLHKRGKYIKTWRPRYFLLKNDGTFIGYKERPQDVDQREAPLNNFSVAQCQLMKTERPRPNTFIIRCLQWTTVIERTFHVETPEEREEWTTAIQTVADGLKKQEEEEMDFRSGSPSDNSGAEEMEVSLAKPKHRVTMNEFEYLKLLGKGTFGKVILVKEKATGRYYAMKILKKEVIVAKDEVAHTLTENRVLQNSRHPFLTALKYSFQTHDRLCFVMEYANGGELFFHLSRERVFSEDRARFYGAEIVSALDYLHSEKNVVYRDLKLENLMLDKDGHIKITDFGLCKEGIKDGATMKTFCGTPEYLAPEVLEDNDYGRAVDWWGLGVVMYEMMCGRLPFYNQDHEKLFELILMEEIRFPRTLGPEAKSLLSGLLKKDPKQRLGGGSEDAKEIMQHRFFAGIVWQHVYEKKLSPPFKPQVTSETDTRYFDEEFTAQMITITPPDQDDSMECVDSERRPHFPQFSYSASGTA
UniProt P31751: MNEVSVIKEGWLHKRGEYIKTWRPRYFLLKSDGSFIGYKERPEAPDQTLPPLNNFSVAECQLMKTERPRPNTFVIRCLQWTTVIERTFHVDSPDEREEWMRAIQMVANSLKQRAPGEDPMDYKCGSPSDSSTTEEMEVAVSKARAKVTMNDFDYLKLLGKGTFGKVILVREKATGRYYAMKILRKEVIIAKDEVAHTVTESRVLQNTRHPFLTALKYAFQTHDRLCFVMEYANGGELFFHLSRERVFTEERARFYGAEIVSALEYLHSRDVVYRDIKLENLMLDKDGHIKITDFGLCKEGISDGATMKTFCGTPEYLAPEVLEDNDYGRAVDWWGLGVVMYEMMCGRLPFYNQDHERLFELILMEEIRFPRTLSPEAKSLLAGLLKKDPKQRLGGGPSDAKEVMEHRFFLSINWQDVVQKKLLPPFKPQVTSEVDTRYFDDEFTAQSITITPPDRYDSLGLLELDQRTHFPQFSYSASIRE

Tests used:
AKT1 E17K = AKT1 E17K (Homo sapiens (Human), UniProt P31749, E17K); test: Live cell target engagement (NanoBRET) in HEK293 cells; assay type: cell-based
AKT2 = AKT2 (Homo sapiens (Human), UniProt P31751); test: as above; assay type: cell-based; conditions: HEK293, 2 hours at 37° C.

`Nc1ncccc1-c1nc2ccc(N3C4CCC3COC4)nc2n1-c1ccc(CNC(=O)Cc2ccc(C=O)c(O)c2)cc1` [Example 9, N-(4-(2-(2-aminopyridin-3-yl)-5-(3-oxa-8-azabicyclo[3.2.1]octan-8-yl)-3H-imidazo[4,5-b]pyridin-3-yl)benzyl)-2-(4-formyl-3-hydroxyphenyl)acetamide] was tested, and the “AKT1 E17K IC50: Selectivity vs AKT1 WT” value (AKT1 E17K) was 18, the “AKT1 E17K IC50: Selectivity vs AKT2” value (AKT1 E17K) was greater than 160 and the IC50 (AKT1 E17K; HEK293, 2 hours at 37° C.) was less than 100 nM. It also gave an IC50 (AKT2) greater than 500 nM.
